Measurements as given in patent US20170267750A1, “Method of Treating Ovarian and Renal Cancer Using Antibodies Against T Cell Immunoglobulin Domain and Mucin Domain 1 (TIM-1) Antigen” (Celldex Therapeutics, Inc., priority 2005, published 2017).

Columns and labels:
[1] = target: TIM-1 (T cell, immunoglobulin domain and mucin domain 1), cell membrane-bound (human) (UniProt Q96D42); test: cell-based or functional assay
[2] = target: TIM-1 (T cell, immunoglobulin domain and mucin domain 1), cell membrane-bound (human) (UniProt Q96D42); test: FACS on ACHN cells, normalised to isotype control pK16
[3] = target: TIM-1 (T cell, immunoglobulin domain and mucin domain 1), cell membrane-bound (human) (UniProt Q96D42); test: FACS on polarized human CD4+ Th2 cells, 10 ug/mL mAb, goat anti-human PE
[4] = target: TIM-1 antigen, soluble extracellular domain of TIM-1 (CG57008-02) with a V5-HIS tag (human) (UniProt Q96D42); test: BIAcore 2000, 25 C, mAb captured on goat anti-human surface, TIM-1 antigen injected at 292 nM

IL-4 release by CD4+ Th1 cells, Percentage of Control Antibody (% of control antibody) [1]: 39.8
IL-4 release by CD4+ Th2 cells, Percentage of Control Antibody (% of control antibody) [1]: 25.7
IL-5 release by CD4+ Th1 cells, Percentage of Control Antibody (% of control antibody) [1]: 90.2
IL-5 release by CD4+ Th2 cells, Percentage of Control Antibody (% of control antibody) [1]: 149
IL-10 release by CD4+ Th1 cells, Percentage of Control Antibody (% of control antibody) [1]: 84
IL-10 release by CD4+ Th2 cells, Percentage of Control Antibody (% of control antibody) [1]: 56
IL-13 release by CD4+ Th1 cells, Percentage of Control Antibody (% of control antibody) [1]: 96.2
IL-13 release by CD4+ Th2 cells, Percentage of Control Antibody (% of control antibody) [1]: 86.8
INF γ release by CD4+ Th1 cells, Percentage of Control Antibody (% of control antibody) [1]: 101
INF γ release by CD4+ Th2 cells, Percentage of Control Antibody (% of control antibody) [1]: 25.7
Geo Mean Ratio (relative to negative control) [2]: 4.3
Geometric mean of fluorescence intensity [3]: 42.4
Kd [4]: 1.15 nM
Substance: anti-TIM-1 monoclonal antibody 2.45
